Yeast mating assay B: variants of the scFv Ab-14

Antigen: PDVDLGDISGINAS, a 14-residue peptide of the SARS-CoV-2 spike HR2 region.

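The starting antibody came from a phage panning campaign against this peptide. This is the validation round: designs drawn from the data on random variants, tested in the same kind of assay. Several design methods are mixed in this list. AlphaSeq pools MATa yeast showing the antibodies with MATalpha yeast showing the peptide. After mating in shaken culture at 30 °C for 16 h, diploids were selected and their barcode pairs sequenced. Read counts were normalised to the haploid input and turned into Kd by a linear fit to BCL2-family pairs of known affinity, for each replicate. There are six technical replicates.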

The variants keep the heavy chain, the linker and the frameworks of Ab-14 (scFv order VH, a (GGGGS)3 linker, VL).
VH: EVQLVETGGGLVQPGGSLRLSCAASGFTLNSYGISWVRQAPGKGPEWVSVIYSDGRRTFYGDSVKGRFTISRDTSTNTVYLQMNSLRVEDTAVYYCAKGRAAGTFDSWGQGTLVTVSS
VL: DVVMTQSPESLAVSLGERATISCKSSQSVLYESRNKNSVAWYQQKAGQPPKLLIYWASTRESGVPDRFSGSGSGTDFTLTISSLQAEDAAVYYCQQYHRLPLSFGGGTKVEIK

Positions count from residue 1 of the parent VL; W56D puts D in place of W. This list holds designs with at most six substitutions. The Kd shown is the geometric mean over detected replicates; a lower Kd is a better binder. Where no diploid with the target was found in any replicate, the entry reads "nd": below detection, most likely a poor binder, though not proof of it.

* W56D H98C = 2.4 nM (6 of 6 replicates; controls 1 of 18)
* Y31P K36A W56D = 1.1 nM (6 of 6 replicates; controls 2 of 18)
* Q95D = 36 nM (1 of 6 replicates; controls 0 of 18)
* T59W S62F = 64 nM (1 of 6 replicates; controls 0 of 18)
* S25L V29E W56A = 860 pM (6 of 6 replicates; controls 0 of 18)
* S25V N35M W56D E61S = 580 pM (6 of 6 replicates; controls 2 of 18)
* S25L L30P W56Q = 1.1 nM (6 of 6 replicates; controls 2 of 18)
* N35Y W56G T59L = 3.5 nM (6 of 6 replicates; controls 2 of 18)
* S25L S26P W56N = 1.5 nM (6 of 6 replicates; controls 0 of 18)
* S25L R34E E61I Q96H = 110 nM (5 of 6 replicates; controls 1 of 18)
* S25C L30I N35G S38F W56E S58W = 340 nM (2 of 6 replicates; controls 1 of 18)
* S25L S26Q V29M W56N T59Y = 780 pM (6 of 6 replicates; controls 0 of 18)
* S25V Y31G W56E = 510 pM (6 of 6 replicates; controls 2 of 18)
* S25L V29D N35M S38N W56N = 4.8 nM (6 of 6 replicates; controls 0 of 18)
* K24H S25L Q27D V29G W56N S103N = 1.0 nM (6 of 6 replicates; controls 1 of 18)
* V29E Y31H N37Q Y97C = 5.9 µM (1 of 6 replicates; controls 0 of 18)
* S25L V29F R34T Y97K = 26 nM (6 of 6 replicates; controls 1 of 18)
* Q27G V29Y R34P W56E = 1.4 nM (6 of 6 replicates; controls 0 of 18)
* S25V S26E V29D W56E = 1.1 nM (6 of 6 replicates; controls 0 of 18)
* S25L Q27C V29Q W56E = 940 pM (6 of 6 replicates; controls 0 of 18)
* S25L S26Q S38N W56D S62D = 290 pM (6 of 6 replicates; controls 0 of 18)
* S25I V29W S38P W56G T59F = 31 nM (5 of 6 replicates; controls 0 of 18)
* E61W = 7.4 nM (6 of 6 replicates; controls 0 of 18)
* S26G S28G N35V V39E W56G = nd (0 of 6 replicates; controls 0 of 18)
* S25V Q27P V29W L30W N37A W56H = 1.6 nM (6 of 6 replicates; controls 1 of 18)
* S25V Y31P R34C K36V W56Y S62D = 35 nM (6 of 6 replicates; controls 1 of 18)
* S25L L30P W56E Q96D = 1.7 nM (6 of 6 replicates; controls 2 of 18)
* S25Y = 110 nM (4 of 6 replicates; controls 1 of 18)
* Q27T V29G W56E = 460 pM (6 of 6 replicates; controls 0 of 18)
* S25H V29W E32P W56Q = 1.7 nM (6 of 6 replicates; controls 2 of 18)
* S25L S26R V29T L30K K36Q W56S = 2.5 nM (6 of 6 replicates; controls 2 of 18)
* S25V V29W W56N T59Y = 150 pM (6 of 6 replicates; controls 0 of 18)
* S25L V29M L30M W56N = 990 pM (6 of 6 replicates; controls 2 of 18)
* S25M W56N S62Q = 480 pM (12 of 12 replicates; controls 1 of 36)
* Q27I V29Y R34E N37S W56E T59Q = 73 nM (6 of 6 replicates; controls 0 of 18)
* V29W N35Y = 510 nM (2 of 6 replicates; controls 1 of 18)
* V29W S62H S103F = 110 nM (1 of 6 replicates; controls 0 of 18)
* S25Q W56D H98E = 1.3 nM (6 of 6 replicates; controls 1 of 18)
* V29F K36V W56A = 1.2 nM (6 of 6 replicates; controls 0 of 18)
* K24D W56H = 5.7 nM (6 of 6 replicates; controls 2 of 18)
* S25M S26E S28G N37G W56G T59Q = 880 pM (6 of 6 replicates; controls 0 of 18)
* S25L E61T H98A R99I = 31 nM (6 of 6 replicates; controls 2 of 18)
* R34E A57C = 290 nM (2 of 6 replicates; controls 0 of 18)
* S26Q V29W W56G T59L = 6.8 nM (6 of 6 replicates; controls 2 of 18)

Excerpt, the first 7 entries:

* W56D H98C -> 2.4 nM (6 of 6 replicates; controls 1 of 18)
* Y31P K36A W56D -> 1.1 nM (6 of 6 replicates; controls 2 of 18)
* Q95D -> 36 nM (1 of 6 replicates; controls 0 of 18)
* T59W S62F -> 64 nM (1 of 6 replicates; controls 0 of 18)
* S25L V29E W56A -> 860 pM (6 of 6 replicates; controls 0 of 18)
* S25V N35M W56D E61S -> 580 pM (6 of 6 replicates; controls 2 of 18)
* S25L L30P W56Q -> 1.1 nM (6 of 6 replicates; controls 2 of 18)

Where one sequence has several entries in the source, the replicates are pooled. Values of this round are not directly comparable with the first-round values of the same sequences. The authors' rule: three or more of the six replicates give a measured affinity, fewer mean a poor binder. As a blank, each scFv also met three strains without target: over all light chain designs, 4% of these pairings were detected, typically at 430 nM and seldom below 38 nM. For each scFv, signals with the empty controls are counted beside the result. Of ten entries with the parent sequence, four were seen in most replicates (averages 2.2 nM to 240 nM), three in one and three in none, so single entries are noisy.

Data: MIT Lincoln Laboratory AlphaSeq set, Li et al. 2023, doi:10.1038/s41467-023-39022-2, as distributed in FLAb.